Laboratory results: US7763582B2, “Localized insulin delivery for bone healing” (University of Medicine and Dentistry Of New Jersey, priority 2006, dated 2010)

Details: non-diabetic BB Wistar, days 1 and 3 post-surgery, versus non-diabetic saline group; FIG. 1

With ultralente insulin the blood glucose levels was “comparable”.
